Measured affinities in a library of Ab-14 heavy chain variants

Binding partner: SARS-CoV-2 spike HR2 peptide, sequence PDVDLGDISGINAS.

Parent: Ab-14, a human scFv built as VH, a 15-residue (Gly4Ser)3 linker, VL. Only the CDRs of the heavy chain vary.
VH: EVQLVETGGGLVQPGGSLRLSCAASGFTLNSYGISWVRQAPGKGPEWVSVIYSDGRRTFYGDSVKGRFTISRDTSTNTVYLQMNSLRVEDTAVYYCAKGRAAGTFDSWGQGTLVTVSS
VL: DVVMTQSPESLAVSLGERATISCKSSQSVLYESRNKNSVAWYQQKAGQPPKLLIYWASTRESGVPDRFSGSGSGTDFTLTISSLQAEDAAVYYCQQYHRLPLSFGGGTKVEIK

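Phage display of a naive human antibody library on the peptide gave the parent. These sequences belong to a second round, designed from the earlier measurements on random variants of the parent. Group labels follow the data file (En: ensemble of fine-tuned language models; HC: hill climbing; Gen: genetic algorithm; Gibbs: Gibbs sampling; a sequence that several methods proposed may carry one label only). In AlphaSeq, yeast of one mating type display the scFv and yeast of the other type display the target. Binding brings cells together so that they mate, and sequencing counts the barcode pairs among the diploids. The ratio of observed to expected reads was calibrated, replicate by replicate, on BCL2-family standards whose Kd was known from biolayer interferometry. Mating was done six times.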

Variants are written as CDR1, CDR2 and CDR3 of the heavy chain (limits as in the source). Parent: GFTLNSYGIS, VIYSDGRRTFYGDSVK, GRAAGTFDS. Variants here have more than six changes. Numbers give log10(Kd / nM), so 0 is 1 nM and 3 is 1 µM. Smaller is tighter. "nd" means that the variant was in the library but no mating with the target was seen in that replicate; the authors take this as a sign of poor binding, and no number exists. Of ten entries with the parent sequence, four were seen in most replicates (averages 0.34 to 2.37), three in one and three in none, so single entries are noisy. Empty control strains, which show no peptide, gave a signal in 1% of pairings with all heavy chain designs; the median was 2.08 and 95% of these signals were weaker than 0.84. No background was subtracted. The authors averaged sequences with at least three values out of six and counted those with two or fewer as poor binders. A sequence measured in both rounds can read differently, since the two assays cover different ranges.

The variant GFDLNEYGIS | VIYADGRRTAYTDSVK | GEAAGTFDQ [En_HC] showed -0.47, -0.70, -0.57, -0.49, -0.40, 0.28.
The variant GFDLNEYGIS | VIYADGRRTQYADSVK | GEQAGTFDS [En_HC] showed -0.95, -0.75, -1.02, -1.27, -0.55, -1.19.
The variant GFNLDEYGIS | VIYADGKRTFYADSVK | GSHAGTFDT [En_HC] showed -0.19, -0.54, -0.12, -0.79, -0.53, -0.05.
The variant GFDVDEQGIS | VIYADGLRSQYANSVK | GTIGGMFFQ [En_Gibbs] showed nd, nd, nd, nd, nd, nd.
The variant GFDLDEYGIS | VIYADGSRTAYSKNVK | GGFDDMVLV [En_Gibbs] showed nd, nd, nd, nd, nd, nd.
The variant GFSLDEYGIS | VIYADGRRTFYADSVK | GNSAGTFDM [En_HC] showed 0.85, 0.66, 0.63, 0.63, 2.26, 1.50.
The variant GFDLNEYGIS | VIYADGRRTAYVDSVK | GTNAGTFDV [En_Gen] showed -0.62, -0.34, -0.87, -0.72, -0.33, -0.42.
The variant GFQIDEYGIS | VIYADGQRKAYTENVK | GQHGGMTVA [En_Gibbs] showed nd, nd, nd, nd, nd, nd.
The variant GRDLDEYGIS | VIYADGTRKMYAPSFK | GEHGGTFLM [En_Gibbs] showed nd, nd, nd, nd, nd, nd.
The variant GFDLNEYGIS | VIYADGSRTAYADSVK | GNNAGTFDL [En_Gen] showed -0.20, -0.35, -0.32, -0.30, -0.38, 0.07.
The variant GFSIDEYGIS | VIYADGLRQHYTNAVK | GEAAGTFDT [En_Gibbs] showed -0.04, -0.39, -0.36, 0.08, 0.25, -0.13.
The variant GFDLNEYGIS | VIYADGVRRTYQDAVK | VHNSGVIDV [En_Gibbs] showed nd, nd, nd, nd, nd, nd.
The variant GFQIDEYGIS | VIYADGQRSAYSENVK | GQHGGMTVA [En_Gibbs] showed nd, nd, nd, nd, nd, nd.
The variant GFDLNEYGIS | VIYADGRRTFYIDSVK | GQVAGTFNV [En_HC] showed -0.37, -0.52, 0.98, nd, -1.29, -0.02.
The variant GFDLNEYGIS | VIYADGRRTYYADSVK | GENAGTFDV [En_Gen] showed 1.24, 1.14, 1.25, 1.49, 1.32, 0.98.
The variant GFNLDEYGVS | VIYADGMRSMYADSVK | GGISGWFFI [En_Gibbs] showed nd, nd, nd, nd, nd, nd.
The variant GFDLNEYGIS | VIYADGSRTAYADNVK | GNVAGTFDI [En_Gen] showed 0.61, -0.33, -0.29, -0.12, -0.23, -0.28.
The variant GFDLDEYGIS | VIYADGVRTAYADSVK | GNVAGTFDA [En_Gen] showed -0.38, -0.66, -0.64, -0.89, -1.03, -0.67.
The variant GFDLNEYGIS | VIYADGRRTFYIDSVK | GEVAGTFDM [En_HC] showed -0.03, -0.29, -0.64, -0.28, -0.63, 0.06.
The variant GFDLNEYGIS | VIYADGVRTSYADSVK | GENAGTFDL [En_Gen] showed nd, nd, nd, nd, nd, nd.
The variant GFDLNEYGIS | VIYADGVRQAYADSVK | GNVAGTFDI [En_Gen] showed -0.02, 0.10, -0.27, 0.06, 0.01, -0.17.
The variant GFNLDEYGVS | VIYADGFRVAYAESVK | GLMQFGFTI [En_Gibbs] showed nd, nd, nd, nd, nd, nd.
The variant GFDLNEYGIS | VIYADGQRTAYADKVK | GQNAGTFDV [En_Gen] showed nd, -0.28, nd, -1.04, -0.59, -0.97.
The variant KENIDEYGIS | VIYADGRRTAYTQDVK | GQAGGIIDV [En_Gibbs] showed nd, nd, nd, nd, nd, nd.
The variant GFDLNEYGIS | VIYADGVRSFYADSVK | GQNAGTFDV [En_HC] showed -0.41, -0.09, -0.21, -0.23, -0.51, -0.09.
The variant GFDLNEYGIS | VIYADGLRTFYADSVK | GQNAGTFDQ [En_HC] showed -0.41, -0.22, -0.52, -0.48, -0.63, -0.13.
The variant GPSLDEFGIS | VIYADGMRTAYTDSVK | GLVAATFVD [En_Gibbs] showed nd, nd, nd, nd, nd, nd.
The variant GFDIDEQGIS | VIYADGLRVAYKNRVK | GMGSGVIDM [En_Gibbs] showed nd, nd, nd, nd, nd, nd.
The variant GMDLDEYGIS | VIYADGQRRAYAANFK | GVNIDGFDL [En_Gibbs] showed nd, 1.32, 0.43, 1.80, nd, nd.
The variant GFDLNEYGIS | VIYADGVRTAYADSVK | GANAGTFDV [En_Gen] showed -0.74, -0.12, -0.59, -1.25, 0.09, -0.45.
The variant GFDLNEYGIS | VIYADGQRTAYADSVK | GGNAGTFDI [En_Gen] showed -0.31, -0.49, -0.67, -0.56, -0.27, -0.26.
The variant GQDLNEYGIS | VIYADGLRTAYSNNFK | GVQAGFDQG [En_Gibbs] showed nd, nd, nd, nd, nd, nd.
The variant GFHLDEFGIS | VIYADGLRYHYANSVK | GEMAGTFTT [En_Gibbs] showed 2.02, 2.08, 1.78, 2.01, 1.00, 2.01.
The variant GFDLEDYGIS | VIYADGRRTFYSDSVK | GEIAGTFDQ [En_HC] showed -0.17, -0.33, -0.52, -0.36, -0.53, -0.22.
The variant GFDLNEYGIS | VIYADGTRTAYADSVK | GNNAGTFDV [En_Gen] showed -0.23, -0.38, -0.31, -0.45, -0.42, 0.04.
The variant GFQINEYGIS | VIYADGMRTGYADDVK | GMKDGNIFD [En_Gibbs] showed nd, nd, nd, nd, nd, nd.
The variant GFGLMDYGIS | VIYADGMRTSYANSFK | GAHAGTFDE [En_Gibbs] showed 0.31, 0.27, 0.55, 0.19, 0.48, 0.57.

The first 2 entries again:

{"CDR-H1": "GFDLNEYGIS", "CDR-H2": "VIYADGRRTAYTDSVK", "CDR-H3": "GEAAGTFDQ", "group": "En_HC", "replicates, log10 nM": "-0.47, -0.70, -0.57, -0.49, -0.40, 0.28"}
{"CDR-H1": "GFDLNEYGIS", "CDR-H2": "VIYADGRRTQYADSVK", "CDR-H3": "GEQAGTFDS", "group": "En_HC", "replicates, log10 nM": "-0.95, -0.75, -1.02, -1.27, -0.55, -1.19"}

From the AlphaSeq antibody data of Li et al. 2023 (doi:10.1038/s41467-023-39022-2), copy in the FLAb collection.